# Assay: Pharmacokinetic trial: single 3 mg intravaginal dose of oxybutynin HCl delivered by the MedRing vaginal ring, plasma LC/MS/MS
# Format: in vivo, human (female subjects)
# Text: This trial investigated the feasibility of pulsed intra-vaginal delivery of oxybutynin and explored systemic exposure after application via the MedRing device.
# The trial included female subjects of childbearing potential (women of childbearing potential, WOCBP) aged between 18 and 45 years (inclusive) and female postmenopausal subjects aged between 50 and 69 years (inclusive); Postmenopausal status is defined as age≥50 years and having >12 months amenorrhoea in the absence of hormonal therapy that may cause amenorrhoea.
# The MedRing was manufactured by Demcon Holding, The Netherlands, and filled with 100 mg/mL oxybutynin HCl. Oxybutynin HCl was dissolved in 50% propylene glycol/50% water for injection. The MedRing was pre-filled with 1-2 mL of oxybutynin 100 mg/mL, from which a controlled dose of up to 30 μL (=3 mg) was administered at least 15 minutes after intra-vaginal insertion of the MedRing by trained medical personnel.
# Subjects began a 4-hour pre-dose fasting period before arriving to the clinic until 2 hours post-dose. Upon arrival, the subjects underwent pre-dose measurements to re-confirm eligibility for the study and to perform baseline measurements. The MedRing was inserted intra-vaginally by medically trained personnel. […]
# Plasma oxybutynin concentrations were measured by a validated LC/MS/MS method by Ardena Bioanalytical Laboratories, Assen, The Netherlands. […]
compound,measurement,setting,value
CCN(CC)CC#CCOC(=O)C(O)(c1ccccc1)C1CCCCC1 (centres unmarked) [oxybutynin],parent:metabolite ratio (oxybutynin:N-desethyloxybutynin) on the AUCinf,"female, human, in vivo, 3 mg",1:1.3
same,plasma concentrations relative to known safety window,intravaginal via MedRing,well within the known safety window

# Reference: US20240075005A1, “Treatment of Overactive Bladder with Oxybutynin Applied By Means of a Vaginal Ring” (LIGALLI BV, priority 2021, published 2024)
